Measured values from ChEMBL document CHEMBL4765435, “Synthesis and in vitro anti-bladder cancer activity evaluation of quinazolinyl-arylurea derivatives” (Eur J Med Chem, 2020).

Columns and labels:
[1] = tested on: T-24; test: Induction of apoptosis in human T-24 cells assessed as necrotic cells at 3 uM incubated for 8 hrs by annexin V-FITC and PI staining based flow cytometry analysis (reference value: 0.84 %); assay type: functional
[2] = tested on: T-24; test: Induction of apoptosis in human T-24 cells assessed as early apoptotic cells at 3 uM in presence of zVAD incubated for 8 hrs by annexin V-FITC and PI staining based flow cytometry analysis (reference value: 3.37 %); assay type: functional

Nc1ccn([C@@H]2O[C@H](CO)[C@@H](O)C2(F)F)c(=O)n1 [GEMCITABINE]
Activity [1]: 5.36%
Activity [2]: 4.18%
